# Data from patent publication US9370606B2, “Scaffold-free self-organized 3D synthetic tissue” (Two Cells, Co., Ltd., priority 2003, dated 2016).
# B1: BMP-2: bone morphogenetic protein added to chondrogenesis induction medium (protein, UniProt P12643 283-396, looked up)
# Bone morphogenetic protein 2: QAKHKQRKRLKSSCKRHPLYVDFSDVGWNDWIVAPPGYHAFYCHGECPFPLADHLNSTNHAIVQTLVNSVNSKIPKACCVPTELSAISMLYLDENEKVVLKNYQDMVVEGCGCR
# Test system: synovial cell in a three-dimensional synthetic tissue
# Assay: Chondrogenesis induction of the synthetic tissue
# Assay type: cell-based
# Conditions: chondrogenesis induction medium+BMP-2
# Experimental: In this example, it was determined whether or not chondrogenesis induction can be used for the production method of the synthetic tissue of the present invention.
# Cell density: 4×10^4 cells/cm^2
# Conditions: CO2 5%, air 95%, 37° C.
# These conditions and a chondrogenesis induction medium described below were used to produce a synthetic tissue.
# Cartilage differentiation induction medium: DMEM (GIBCO), FBS (HyClone) 10%, ITS+Premix (insulin, transferrin, selenious acid) (BD Biosciences) 6.25 μg/ml, dexamethasone (Sigma) 10^−7 M, ascorbic acid (WAKO) 50 μg/ml, pyrubic acid (SIGMA) 100 μg/ml.
molecule,measurement,value
B1,acceleration of cartilage-like matrix production (Alcian blue staining),significant
same,expression of the collagen II gene,increased
